# PubChem BioAssay AID2549 (National Center for Advancing Translational Sciences (NCATS), 2010)
# Amino acid sequences for entries named in this document (tags omitted).
# UniProt P46063, whole entry: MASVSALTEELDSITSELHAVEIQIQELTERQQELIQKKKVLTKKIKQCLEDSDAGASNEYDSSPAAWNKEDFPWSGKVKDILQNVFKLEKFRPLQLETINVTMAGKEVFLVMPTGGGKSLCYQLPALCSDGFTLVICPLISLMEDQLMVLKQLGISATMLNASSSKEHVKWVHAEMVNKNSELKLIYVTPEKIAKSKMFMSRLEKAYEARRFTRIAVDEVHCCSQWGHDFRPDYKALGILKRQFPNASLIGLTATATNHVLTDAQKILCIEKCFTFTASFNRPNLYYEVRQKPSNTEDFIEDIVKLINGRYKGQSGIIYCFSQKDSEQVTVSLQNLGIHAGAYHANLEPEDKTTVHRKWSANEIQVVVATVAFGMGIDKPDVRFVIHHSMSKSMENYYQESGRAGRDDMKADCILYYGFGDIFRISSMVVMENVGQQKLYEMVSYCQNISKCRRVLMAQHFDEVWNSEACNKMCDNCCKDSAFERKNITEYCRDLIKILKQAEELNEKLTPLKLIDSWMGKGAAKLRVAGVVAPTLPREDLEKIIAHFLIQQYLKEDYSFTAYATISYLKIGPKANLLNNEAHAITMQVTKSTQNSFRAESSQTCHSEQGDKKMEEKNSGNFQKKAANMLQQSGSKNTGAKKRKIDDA
# This is a selection; strong and weak results do not stand in their true shares. Calls of active or inactive are those of the source. The call rests on the fitted dose curve; in most records, active means well fitted inhibition curve with a large enough effect; inconclusive means small, poorly fitted or top-dose-only effect; inactive means flat fitted curve, though single readings scatter.
# Biological target: ATP-dependent DNA helicase Q1 (Homo sapiens) (UniProt P46063)
# Test: qHTS Assay for Inhibitors of RecQ-Like Dna Helicase 1 (RECQ1); further: nearly all actives have a fitted effect of over 30% in size;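 on activity, negative = inhibition: plate controls were vehicle for no effect and no enzyme for full effect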
# Details: RECQ1 DNA unwinding, red fluorescence kinetic read; activity, negative = inhibition: at 57.3 µM (top of the series) unless noted
# From the text: Survival of cells and the faithful propagation of the genome depend on elaborate mechanisms of detecting and repairing DNA damage. Treatment of advanced cancer relies on radiation therapy or chemotherapy, which kill cancer cells by causing extensive DNA damage. It is often found, that cancer cells develop resistance to therapy through enhanced activity of DNA repair functions; this has led to an increased interest in developing drugs that interfere with DNA repair, which could sensitize cancer cells to conventional therapy.
# This validation qHTS assay pertains to human RECQ1, which is important in resolving abnormal DNA structures formed during replication or homologous recombination. Shutting down the expression of RECQ1 leads to chromosomal instability and higher radiation sensitivity in cultured cells.
# The validation assay was a fluorescence quenching based kinetic qHTS for RECQ1 Helicase DNA unwinding. The activity was measured as ATP-dependent separation of a 20-bp DNA duplex extended by 30-nt single-stranded tails (forked duplex). The forked DNA substrate was tagged with rhodamine fluorophore (carboxytetramethyl rhodamine, TAMRA) and BHQ-2 (Black Hole Quencher 2) dark quencher. Strand separation results in an increase in the fluorescence of TAMRA (excitation 525 nm, emission 598 nm). This substrate construct operates in a red-shifted region where very few compound library members have been noted to fluoresce (PubChem AIDs 593 and 594). An additional feature of the assay is the inclusion of 2.5 ug/ml poly (dIdC), to reduce interference by compounds such as DNA intercalators, a major source of false inhibitors.
# Opher Gileadi, Structural Genomics Consortium, University of Oxford
# Screening Center PI: Austin, C.P.
# Screening Center: NIH Chemical Genomics Center [NCGC]
# Three uL of reaction buffer (25 mM Tris-HCl (pH 8.0), 5 mM NaCl, 2 mM MgCl2, 1mM DTT, 0.01% Tween- 20, and 2.5 ug/ml poly(dI-dC), including enzyme (50 nM RECQ1T1), were dispensed into a 1536-well Greiner black assay plate via solenoid-valve based nanoliter dispensers. Compounds (23 nl each in columns 5-48) and control (23 nl each in column 2 as dose-response) were transferred via a Kalypsys pintool equipped with a 1536-pin array. The plates were incubated for 15 min at room temperature, and then 1 ul of substrates (200 nM DNA and 2 mM ATP, final concentrations) was added to start the reaction. The plate was transferred into a ViewLux high-throughput CCD imager where the reaction progress was measured in a discontinuous kinetic mode (two reads spaced 2 hours apart, with intermediate room temperature incubation of the covered assay plate) by using standard red-fluorescence optics (excitation filter 525 nm, emission filter 598 nm). Enzyme-free and vehicle (DMSO) controls were included for signal normalization.
row,Structure (SMILES),"activity, negative = inhibition"
1,Cc1cc(C)cc(OP(C)(N)=O)c1 (configuration not stated),inactive: -2.13%
2,COc1ccccc1OP(C)(=O)Nc1cc(Cl)ccc1C (configuration not stated),inactive: -7.45%
3,COc1ccc(OP(C)(=O)Nc2cccc(F)c2)cc1 (configuration not stated),inactive: -7.9%
4,COc1ccccc1OP(C)(=O)Nc1ccc(C)cc1 (configuration not stated),inactive: 7.37%
5,Cc1ccc(NP(C)(=O)Oc2ccccc2)c(C)c1 (configuration not stated),inactive: -9.6%
6,CCOC(=O)c1ccc(NP(C)(=O)Oc2ccccc2)cc1 (configuration not stated),inactive
7,O=[N+]([O-])c1ccc2c(c1)C=Nc1ccccc1O2,inactive
8,CC(C)(C)c1ccc(OP(C)(=O)Nc2ccc(SC(F)(F)F)cc2)cc1 (configuration not stated),inactive: -6.35%
9,Cc1cccc(C)c1OP(C)(N)=O (configuration not stated),inactive: -0.405%
10,O=C(O)C(O)(c1ccccc1)c1ccccc1,inactive: -11.4%
11,O=C(O)C1(O)c2ccccc2-c2ccccc21,inactive: -0.324%
12,O=[N+]([O-])[O-].[NH4+],inactive: -10.6%
13,CCN(CC)CCCOC(=O)C(O)(c1ccccc1)c1ccccc1,inactive: -2.76%
14,CP(=O)(Nc1ccccn1)Oc1ccc(Cl)cc1 (configuration not stated),inactive: -2.61%
15,CCOC(=O)c1ccc(NP(C)(=O)Oc2ccc(OC)cc2)cc1 (configuration not stated),inactive: -8.09%
16,CCOP(C)(=S)SCC(=O)NC(C)C(=O)O (configuration not stated),inactive: 16.8%
17,CP(=O)(NC(=O)Nc1ccccc1)Oc1ccccc1 (configuration not stated),inactive: -1.01%
18,CCc1ccc(OP(C)(=O)N2CCN(c3ccc([N+](=O)[O-])cc3)CC2)cc1 (configuration not stated),inactive: -5.94%
19,Cc1cc(C)cc(OP(C)(=O)Nc2ccc(SC(F)(F)F)cc2)c1 (configuration not stated),inactive
20,Cc1cccc(C)c1OP(C)(=O)Nc1ccc(SC(F)(F)F)cc1 (configuration not stated),inactive: -4.05%
21,CP(=O)(Nc1ccc(SC(F)(F)F)cc1)Oc1ccc(Cl)cc1 (configuration not stated),inactive: -3.84%
22,CP(=O)(Oc1ccccc1)OC(c1ccccc1)C(F)(F)F (configuration not stated),inactive
23,CP(=O)(Nc1ccccc1Br)Oc1ccccc1 (configuration not stated),inactive: -5.98%
24,COc1ccccc1OP(C)(=O)Nc1ccccc1 (configuration not stated),inactive: -2.92%

row,Structure (SMILES),"activity, negative = inhibition"
1,CP(=S)(Nn1cnnc1)Oc1ccccc1 (configuration not stated),inactive: -13.8%
2,CCCOc1ccc(NP(C)(=O)Oc2ccc(Cl)cc2)cc1 (configuration not stated),inactive: -6.67%
3,CP(=O)(Nc1ccc(SC(F)(F)F)cc1)Oc1ccccc1 (configuration not stated),inactive
4,COc1ccccc1OP(C)(=O)Nc1c(C)cccc1C (configuration not stated),inactive: -10%
5,CN1CCCCC1COC(=O)C1(O)c2ccccc2CCc2ccccc21 (configuration not stated),inactive: -2.99%
6,O=[N+]([O-])c1cc([N+](=O)[O-])c(Nc2nnnn2CCO)c([N+](=O)[O-])c1,inactive
7,Cc1nc2ccc3ccccc3c2s1.O=[N+]([O-])c1cc([N+](=O)[O-])c(O)c([N+](=O)[O-])c1,inactive
8,CC(C)N(CCCl)C(C)C,inactive: 0.128%
9,O=[N+]([O-])c1cc([N+](=O)[O-])c(-n2nnc3ccccc32)c([N+](=O)[O-])c1,inactive: -2.56%
10,Cc1ccc(C)c(NP(C)(=O)Oc2ccccc2)c1 (configuration not stated),inactive: -12.7%
11,Cc1cc(C)cc(OP(C)(=O)Nc2ccccn2)c1 (configuration not stated),inactive: -12.3%
12,CP(=O)(Nc1cccc(Br)c1)Oc1ccccc1 (configuration not stated),inactive: 27.7%
13,CCOC(=O)c1ccc(NP(C)(=O)Oc2cc(C)cc(C)c2)cc1 (configuration not stated),inactive: -0.255%
14,Cc1cc(C)cc(OP(C)(=O)Nc2ccc(C)cc2C)c1 (configuration not stated),inactive: 3.06%
15,COc1ccccc1OP(C)(=O)Nc1cccc(Br)c1 (configuration not stated),inactive
16,CC1=NCCc2c1[nH]c1ccccc21.O=[N+]([O-])c1cc([N+](=O)[O-])c(O)c([N+](=O)[O-])c1,inactive: -0.806%
17,O=[N+]([O-])OCC(CO[N+](=O)[O-])(CO[N+](=O)[O-])CO[N+](=O)[O-],inactive
18,Cc1ccc([N+](=O)[O-])cc1[N+](=O)[O-],inactive: -2.36%
19,O=[N+]([O-])c1cccc([N+](=O)[O-])c1,inactive: -3.2%
20,CP(=O)(Nc1ccccc1)Oc1ccc(F)cc1 (configuration not stated),inactive: -4.14%
21,CCCCCOc1ccc(NP(C)(=O)Oc2ccc(Cl)cc2Cl)cc1 (configuration not stated),inactive: -10.7%
22,CCN(CC)CCCOC(=O)C(O)(c1ccccc1)C1CCCCC1 (configuration not stated),inactive: -6.14%
23,CCOC(=O)c1ccc(NP(C)(=O)Oc2ccc(F)cc2)cc1 (configuration not stated),inactive: 6.58%
